{"source": "paper PMC7253423", "about": "“Quassinoid analogs with enhanced efficacy for treatment of hematologic malignancies target the PI3Kγ isoform” (Communications Biology, 2020)", "key": {"normal T-cells": {"system": "normal T-cells", "experiment": "Cytotoxicity, cell viability assay in normal cells", "assay_type": "cell-based, human", "conditions": "fraction of 0 μM control", "excerpt": "(§1) Human peripheral blood mononuclear cells (PBMCs), normal T-cells and B-cells were provided by the University of Pennsylvania Human Immunology Core (HIC), and Patient-derived xenografts (PDXs) were obtained from Fox Chase Cancer Center (FCCC). These samples were from different unidentified and healthy donors with written, informed consent. All the procedures were approved by the Institutional Review Board (IRB) and conducted according to the declarations of Helsinki protocols.\n(§2) 5000 cells as indicated were cultured in 96-well plate with 100 μl of media. On the next day, Brusatol or associated analogs were added once to the cells without media change. After treatment, the cells were incubated with 100 μl buffer for 10 min at room temperature following the instructions of CellTiter-Glo kit (Promega, Madison, WI). Luminescence was detected using a multi-mode reader Cytation 5 (BioTek, Winooski, VT). Brusatol or its analogs are dissolved in 100% ethanol and diluted in 1 × PBS for treatment. Two independent experiments done in duplicates were performed."}, "MOLM14 cells": {"system": "MOLM14 cells", "experiment": "Cell viability assay (CellTiter-Glo luminescence)", "assay_type": "cell-based", "conditions": "human", "experimental": "as §2"}, "SU-DHL-4 cells": {"system": "SU-DHL-4 cells", "experiment": "Cell viability assay (CellTiter-Glo luminescence)", "assay_type": "cell-based", "conditions": "human", "experimental": "as §2"}, "Raji cells": {"system": "Raji cells", "experiment": "Cell viability assay (CellTiter-Glo luminescence)", "assay_type": "cell-based", "conditions": "human", "experimental": "as §2"}, "PBMC": {"system": "PBMC", "experiment": "Cytotoxicity, cell viability assay in normal cells", "assay_type": "cell-based, human", "conditions": "Con. 0.000976563 μM, fraction of 0 μM control", "excerpt": "as §1, §2"}}, "data": [{"smiles": "CC[C@H](Nc1ncnc2[nH]cnc12)c1nc2cccc(F)c2c(=O)n1-c1ccccc1", "note": "[Idelalisib]", "values": [{"measurement": "relative cell viability (Fig 6b), replicates", "setting": "normal T-cells; Con. 0.015625 μM", "result": 1.009}, {"measurement": "relative cell viability (Fig 6b), replicates", "setting": "normal T-cells; Con. 0.0625 μM", "result": 1.048}, {"measurement": "relative cell viability (Fig 6e), replicates", "setting": "MOLM14 cells; 0.00976562 μM", "result": 1.185}, {"measurement": "relative cell viability (Fig 6d), replicates", "setting": "SU-DHL-4 cells; 0.00976562 μM", "result": 1.214}, {"measurement": "relative cell viability (Fig 6d), replicates", "setting": "SU-DHL-4 cells; 0.0390625 μM", "result": 1.044}, {"measurement": "relative cell viability (Fig 6d), replicates", "setting": "SU-DHL-4 cells; 0.15625 μM", "result": 1.012}, {"measurement": "relative cell viability (Fig 6d), replicates", "setting": "SU-DHL-4 cells; 0.625 μM", "result": 1.012}, {"measurement": "relative cell viability (Fig 6f), replicates", "setting": "Raji cells; 0.00244141 μM", "result": 1.153}, {"measurement": "relative cell viability (Fig 6f), replicates", "setting": "Raji cells; 0.00976562 μM", "result": 1.359}, {"measurement": "relative cell viability (Fig 6f), replicates", "setting": "Raji cells; 0.15625 μM", "result": 1.194}, {"measurement": "relative cell viability (Fig 6f), replicates", "setting": "Raji cells; 2.5 μM", "result": 1.018}, {"measurement": "relative cell viability (Fig 6f), replicates", "setting": "Raji cells; 10 μM", "result": 0.8548}]}, {"smiles": "C[C@H](NC(=O)c1c(N)nn2cccnc12)c1cc2cccc(C#Cc3cnn(C)c3)c2c(=O)n1-c1ccccc1", "note": "[IPI-549]", "values": [{"measurement": "relative cell viability (Fig 6a), replicates", "setting": "PBMC", "result": 1.089}, {"measurement": "relative cell viability (Fig 6b), replicates", "setting": "normal T-cells; Con. 0.000244141 μM", "result": 0.9355}, {"measurement": "relative cell viability (Fig 6b), replicates", "setting": "normal T-cells; Con. 0.25 μM", "result": 1.195}, {"measurement": "relative cell viability (Fig 6e), replicates", "setting": "MOLM14 cells; 0.00244141 μM", "result": 1.208}, {"measurement": "relative cell viability (Fig 6e), replicates", "setting": "MOLM14 cells; 0.0390625 μM", "result": 1.211}, {"measurement": "relative cell viability (Fig 6e), replicates", "setting": "MOLM14 cells; 2.5 μM", "result": 1.11}, {"measurement": "relative cell viability (Fig 6d), replicates", "setting": "SU-DHL-4 cells; 0.00244141 μM", "result": 1.1404}, {"measurement": "relative cell viability (Fig 6d), replicates", "setting": "SU-DHL-4 cells; 0.00976562 μM", "result": 1.083}, {"measurement": "relative cell viability (Fig 6d), replicates", "setting": "SU-DHL-4 cells; 0.15625 μM", "result": 1.172}, {"measurement": "relative cell viability (Fig 6d), replicates", "setting": "SU-DHL-4 cells; 0.625 μM", "result": 0.9953}, {"measurement": "relative cell viability (Fig 6d), replicates", "setting": "SU-DHL-4 cells; 2.5 μM", "result": 0.8211}, {"measurement": "relative cell viability (Fig 6f), replicates", "setting": "Raji cells; 0.0390625 μM", "result": 1.1894}, {"measurement": "relative cell viability (Fig 6f), replicates", "setting": "Raji cells; 0.625 μM", "result": 1.19}]}]}
